Biological target: His-BIR2 (124-240/C202A/C213G) (Homo sapiens (Human), UniProt P98170, C202A/C213G)
Conditions: read-out: XIAP-BIR2 AlphaScreen IC50, Biotinylated SMAC peptide

Row | SMILES | IC50
1 | CCN[C@@H](C)C(=O)N[C@H](C(=O)N[C@H](C(=O)N1Cc2cc(OCc3ccc(C(=O)N[C@H]4C[C@@H](C(=O)N[C@@H]5CCCc6ccccc65)N(C(=O)[C@@H](NC(=O)[C@H](C)NC)C(C)(C)C)C4)cc3)ccc2C[C@H]1C(=O)N[C@@H]1CCCc2ccccc21)C(C)(C)C)C(C)(C)C [Example 40, (S)-7-((4-(((3S,5S)-1-((S)-3,3-Dimethyl-2-((S)-2-(methylamino)propanamido)butanoyl)-5-(((R)-1,2,3,4-tetrahydronaphthalen-1-yl)carbamoyl)pyrrolidin-3-yl)carbamoyl)benzyl)oxy)-2-((S)-2-((S)-2-((S)-2-(ethylamino)propanamido)-3,3-dimethylbutanamido)-3,3-dimethylbutanoyl)-N-((R)-1,2,3,4-tetrahydronaphthalen-1-yl)-1,2,3,4-tetrahydroisoquinoline-3-carboxamide] | 2100 nM
2 | CN[C@@H](C)C(=O)N[C@H](C(=O)N1Cc2cc(NCc3ccc(C(=O)N[C@H]4C[C@@H](C(=O)N[C@@H]5CCCc6ccccc65)N(C(=O)[C@@H](NC(=O)[C@H](C)NC)C(C)(C)C)C4)cc3Cl)ccc2C[C@H]1C(=O)N[C@@H]1CCCc2ccccc21)C(C)(C)C [Example 33, (S)-7-((2-Chloro-4-(((3S,5S)-1-((S)-3,3-dimethyl-2-((S)-2-(methylamino)propanamido)butanoyl)-5-(((R)-1,2,3,4-tetrahydronaphthalen-1-yl)carbamoyl)pyrrolidin-3-yl)carbamoyl)benzyl)amino)-2-((S)-3,3-dimethyl-2-((S)-2-(methylamino)propanamido)butanoyl)-N—((R)-1,2,3,4-tetrahydronaphthalen-1-yl)-1,2,3,4-tetrahydroisoquinoline-3-carboxamide] | 790 nM
3 | CN[C@@H](C)C(=O)N[C@H](C(=O)N1Cc2cc(C(=O)Nc3ccc(C(=O)N[C@H]4C[C@@H](C(=O)N[C@@H]5CCCc6ccccc65)N(C(=O)[C@@H](NC(=O)[C@H](C)NC)C(C)(C)C)C4)cc3)ccc2C[C@H]1C(=O)N[C@@H]1CCCc2ccccc21)C(C)(C)C [Example 27, (S)-2-((S)-3,3-Dimethyl-2-((S)-2-(methylamino)propanamido)butanoyl)-N^7-(4-(((3S,5S)-1-((S)-3,3-dimethyl-2-((S)-2-(methylamino)propanamido)butanoyl)-5-(((R)-1,2,3,4-tetrahydronaphthalen-1-yl)carbamoyl)pyrrolidin-3-yl)carbamoyl)phenyl)-N^3—((R)-1,2,3,4-tetrahydronaphthalen-1-yl)-1,2,3,4-tetrahydroisoquinoline-3,7-dicarboxamide] | 120 nM
4 | CC[C@H](NC)C(=O)N[C@H](C(=O)N1Cc2cc(NC(=O)c3ccc(C(=O)N[C@H]4C[C@@H](C(=O)N[C@@H]5CCCc6ccccc65)N(C(=O)[C@@H](NC(=O)[C@H](C)NC)C(C)(C)C)C4)cc3)ccc2C[C@H]1C(=O)N[C@@H]1CCCc2ccccc21)C(C)(C)C [Example 15, N^1-((S)-2-((S)-3,3-Dimethyl-2-((S)-2-(methylamino)butanamido)butanoyl)-3-(((R)-1,2,3,4-tetrahydronaphthalen-1-yl)carbamoyl)-1,2,3,4-tetrahydroisoquinolin-7-yl)-N^4-((3S,5S)-1-((S)-3,3-dimethyl-2-((S)-2-(methylamino)propanamido)butanoyl)-5-(((R)-1,2,3,4-tetrahydronaphthalen-1-yl)carbamoyl)pyrrolidin-3-yl)terephthalamide] | 220 nM
5 | CN[C@@H](C)C(=O)N[C@H](C(=O)N1Cc2cc(N(Cc3ccc(C(=O)N[C@H]4C[C@@H](C(=O)N[C@@H]5CCCc6ccccc65)N(C(=O)[C@@H](NC(=O)[C@H](C)NC)C(C)(C)C)C4)cc3)C(C)=O)ccc2C[C@H]1C(=O)N[C@@H]1CCCc2ccccc21)C(C)(C)C [Example 32, (S)-2-((S)-3,3-Dimethyl-2-((S)-2-(methylamino)propanamido)butanoyl)-7-(N-(4-(((3S,5S)-1-((S)-3,3-dimethyl-2-((S)-2-(methylamino)propanamido)butanoyl)-5-(((R)-1,2,3,4-tetrahydronaphthalen-1-yl)carbamoyl)pyrrolidin-3-yl)carbamoyl)benzyl)acetamido)-N—((R)-1,2,3,4-tetrahydronaphthalen-1-yl)-1,2,3,4-tetrahydroisoquinoline-3-carboxamide] | 110 nM
6 | CN[C@@H](C)C(=O)N[C@H](C(=O)N1Cc2cc(OC(=O)c3ccc(CO[C@H]4C[C@@H](C(=O)N[C@@H]5CCCc6ccccc65)N(C(=O)[C@@H](NC(=O)[C@H](C)NC)C(C)(C)C)C4)cc3)ccc2C[C@H]1C(=O)N[C@@H]1CCCc2ccccc21)C(C)(C)C [Example 48, (S)-2-((S)-3,3-Dimethyl-2-((S)-2-(methylamino)propanamido)butanoyl)-3-(((R)-1,2,3,4-tetrahydronaphthalen-1-yl)carbamoyl)-1,2,3,4-tetrahydroisoquinolin-7-yl 4-((((3S,5S)-1-((S)-3,3-dimethyl-2-((S)-2-(methylamino)propanamido)butanoyl)-5-(((R)-1,2,3,4-tetrahydronaphthalen-1-yl)carbamoyl)pyrrolidin-3-yl)oxy)methyl)benzoate] | 500 nM
7 | CN[C@@H](C)C(=O)N[C@H](C(=O)N1Cc2cc(NC(=O)c3ccc(CCC(=O)N[C@H]4C[C@@H](C(=O)N[C@@H]5CCCc6ccccc65)N(C(=O)[C@@H](NC(=O)[C@H](C)NC)C(C)(C)C)C4)cc3)ccc2C[C@H]1C(=O)N[C@@H]1CCCc2ccccc21)C(C)(C)C [Example 9, (S)-2-((S)-3,3-Dimethyl-2-((S)-2-(methylamino)propanamido)butanoyl)-7-(4-(3-(((3S,5S)-1-((S)-3,3-dimethyl-2-((S)-2-(methylamino)propanamido)butanoyl)-5-(((R)-1,2,3,4-tetrahydronaphthalen-1-yl)carbamoyl)pyrrolidin-3-yl)amino)-3-oxopropyl)benzamido)-N-((R)-1,2,3,4-tetrahydronaphthalen-1-yl)-1,2,3,4-tetrahydroisoquinoline-3-carboxamide] | 260 nM
8 | CN[C@@H](C)C(=O)N[C@H](C(=O)N1Cc2cc(C(=O)NC(C)(C)C(=O)N[C@H]3C[C@@H](C(=O)N[C@@H]4CCCc5ccccc54)N(C(=O)[C@@H](NC(=O)[C@H](C)NC)C(C)(C)C)C3)ccc2C[C@H]1C(=O)N[C@@H]1CCCc2ccccc21)C(C)(C)C [Example 29, (S)-2-((S)-3,3-Dimethyl-2-((S)-2-(methylamino)propanamido)butanoyl)-N7-(1-(((3S,5S)-1-((S)-3,3-dimethyl-2-((S)-2-(methylamino)propanamido)butanoyl)-5-(((R)-1,2,3,4-tetrahydronaphthalen-1-yl)carbamoyl)pyrrolidin-3-yl)amino)-2-methyl-1-oxopropan-2-yl)-N3-((R)-1,2,3,4-tetrahydronaphthalen-1-yl)-1,2,3,4-tetrahydroisoquinoline-3,7-dicarboxamide] | 180 nM
9 | CN[C@@H](C)C(=O)N[C@H](C(=O)N1CC[C@@H](OCc2ccc(C(=O)N[C@H]3C[C@@H](C(=O)N[C@@H]4CCCc5ccccc54)N(C(=O)[C@@H](NC(=O)[C@H](C)NC)C(C)(C)C)C3)cc2)C[C@H]1C(=O)N[C@@H]1CCCc2ccccc21)C(C)(C)C [Example 30, (2S,4R)-1-((S)-3,3-Dimethyl-2-((S)-2-(methylamino)propanamido)butanoyl)-4-((4-(((3S,5S)-1-((S)-3,3-dimethyl-2-((S)-2-(methylamino)propanamido)butanoyl)-5-(((R)-1,2,3,4-tetrahydronaphthalen-1-yl)carbamoyl)pyrrolidin-3-yl)carbamoyl)benzyl)oxy)-N—((R)-1,2,3,4-tetrahydronaphthalen-1-yl)piperidine-2-carboxamide] | 110 nM
10 | CN[C@@H](C)C(=O)N[C@H](C(=O)N1Cc2cc(NC(=O)c3ccc(C(=O)Nc4ccc5c(c4)CN(C(=O)[C@@H](NC(=O)[C@H](C)NC)C(C)(C)C)[C@H](C(=O)N[C@@H](COC)c4ccccc4)C5)cc3)ccc2C[C@H]1C(=O)N[C@@H](COC)c1ccccc1)C(C)(C)C [Example 14, N^1,N^4-bis((S)-2-((S)-3,3-Dimethyl-2-((S)-2-(methylamino)propanamido)butanoyl)-3-(((R)-2-methoxy-1-phenylethyl)carbamoyl)-1,2,3,4-tetrahydroisoquinolin-7-yl)terephthalamide] | 2000 nM
11 | CN[C@@H](C)C(=O)N[C@H](C(=O)N1Cc2cc(NC(=O)c3cccc(CO[C@H]4C[C@@H](C(=O)N[C@@H]5CCCc6ccccc65)N(C(=O)[C@@H](NC(=O)[C@H](C)NC)C(C)(C)C)C4)c3)ccc2C[C@H]1C(=O)N[C@@H]1CCCc2ccccc21)C(C)(C)C [Example 52, (S)-2-((S)-3,3-Dimethyl-2-((S)-2-(methylamino)propanamido)butanoyl)-7-(3-((((3S,5S)-1-((S)-3,3-dimethyl-2-((S)-2-(methylamino)propanamido)butanoyl)-5-(((R)-1,2,3,4-tetrahydronaphthalen-1-yl)carbamoyl)pyrrolidin-3-yl)oxy)methyl)benzamido)-N-((R)-1,2,3,4-tetrahydronaphthalen-1-yl)-1,2,3,4-tetrahydroisoquinoline-3-carboxamide] | 360 nM
12 | CN[C@@H](C)C(=O)N[C@H](C(=O)N1Cc2cc(NC(=O)CCc3ccc(C(=O)N[C@H]4C[C@@H](C(=O)N[C@@H]5CCCc6ccccc65)N(C(=O)[C@@H](NC(=O)[C@H](C)NC)C(C)(C)C)C4)cc3)ccc2C[C@H]1C(=O)N[C@@H]1CCCc2ccccc21)C(C)(C)C [Example 8, (S)-2-((S)-3,3-Dimethyl-2-((S)-2-(methylamino)propanamido)butanoyl)-7-(3-(4-(((3S,5S)-1-((S)-3,3-dimethyl-2-((S)-2-(methylamino)propanamido)butanoyl)-5-(((R)-1,2,3,4-tetrahydronaphthalen-1-yl)carbamoyl)pyrrolidin-3-yl)carbamoyl)phenyl)propanamido)-N-((R)-1,2,3,4-tetrahydronaphthalen-1-yl)-1,2,3,4-tetrahydroisoquinoline-3-carboxamide] | 99 nM
